This note sets out measurements from patent US20210139573A1 (Regeneron, published 2021).

Sequences of proteins named here, by UniProt entry; tags and fusion partners are left off. Residues count along the entry.
UniProt P01031, 19-1676 limits assumed: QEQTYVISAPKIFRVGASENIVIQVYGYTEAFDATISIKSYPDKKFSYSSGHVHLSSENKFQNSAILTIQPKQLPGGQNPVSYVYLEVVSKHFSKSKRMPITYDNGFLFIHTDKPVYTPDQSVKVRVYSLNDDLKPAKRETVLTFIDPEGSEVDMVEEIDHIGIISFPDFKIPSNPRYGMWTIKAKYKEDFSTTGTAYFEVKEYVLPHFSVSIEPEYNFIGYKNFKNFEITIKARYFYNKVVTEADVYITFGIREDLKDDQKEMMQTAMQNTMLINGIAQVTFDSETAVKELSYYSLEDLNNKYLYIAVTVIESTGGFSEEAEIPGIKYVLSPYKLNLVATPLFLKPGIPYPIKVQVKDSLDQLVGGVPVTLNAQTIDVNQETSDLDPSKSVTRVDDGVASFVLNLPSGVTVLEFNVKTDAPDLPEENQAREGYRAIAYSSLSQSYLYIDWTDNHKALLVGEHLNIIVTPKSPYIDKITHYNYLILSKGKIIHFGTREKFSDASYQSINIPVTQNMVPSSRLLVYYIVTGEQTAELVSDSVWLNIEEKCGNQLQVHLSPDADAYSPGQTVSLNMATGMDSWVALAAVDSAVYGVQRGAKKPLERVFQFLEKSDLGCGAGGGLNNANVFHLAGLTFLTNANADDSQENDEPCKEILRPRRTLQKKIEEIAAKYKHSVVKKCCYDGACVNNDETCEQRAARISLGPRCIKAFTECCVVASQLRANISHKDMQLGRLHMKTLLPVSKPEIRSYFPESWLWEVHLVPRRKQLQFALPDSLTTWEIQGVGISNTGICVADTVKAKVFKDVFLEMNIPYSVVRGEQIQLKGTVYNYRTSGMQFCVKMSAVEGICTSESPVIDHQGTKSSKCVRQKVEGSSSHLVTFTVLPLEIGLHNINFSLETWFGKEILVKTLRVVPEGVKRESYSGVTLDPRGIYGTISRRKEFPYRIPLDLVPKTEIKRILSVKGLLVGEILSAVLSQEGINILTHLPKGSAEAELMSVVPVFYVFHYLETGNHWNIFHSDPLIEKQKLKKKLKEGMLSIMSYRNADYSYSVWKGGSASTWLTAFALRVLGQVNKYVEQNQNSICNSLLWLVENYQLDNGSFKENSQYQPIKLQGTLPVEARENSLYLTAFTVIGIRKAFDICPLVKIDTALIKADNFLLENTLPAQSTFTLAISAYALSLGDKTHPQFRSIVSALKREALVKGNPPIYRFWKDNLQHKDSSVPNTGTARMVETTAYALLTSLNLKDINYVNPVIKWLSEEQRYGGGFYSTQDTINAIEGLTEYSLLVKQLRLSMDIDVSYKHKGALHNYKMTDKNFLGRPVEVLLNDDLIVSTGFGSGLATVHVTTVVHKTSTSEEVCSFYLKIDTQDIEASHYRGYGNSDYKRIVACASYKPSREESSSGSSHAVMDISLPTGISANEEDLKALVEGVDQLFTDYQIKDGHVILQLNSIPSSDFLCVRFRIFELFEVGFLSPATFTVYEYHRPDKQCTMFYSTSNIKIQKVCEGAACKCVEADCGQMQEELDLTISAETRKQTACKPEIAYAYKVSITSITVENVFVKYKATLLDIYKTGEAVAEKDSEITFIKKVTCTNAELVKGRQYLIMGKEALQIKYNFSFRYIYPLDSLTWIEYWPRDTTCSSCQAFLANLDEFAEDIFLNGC

Holding throughout (experiment): cell-based or functional assay
For assay [1], the target named is T1, human complement component C5 (human, UniProt P01031 19-1676, limits assumed).
The target of assay [2] is T1, human complement component C5. This is another data set of the same source.
Assay [3] has the same target. The source holds these as a separate data set.
The target is the same in assay [4]. This is another data set of the same source.
For assay [5] the target is unchanged. This is another data set of the same source.
For assay [6] the target is unchanged. The source holds these as a separate data set.
Assay [7] has the same target. This is another data set of the same source.

B1: Ravulizumab (antibody, human IgG2, kappa, V domains shown)
VH: QVQLVQSGAEVKKPGASVKVSCKASGHIFSNYWIQWVRQAPGQGLEWMGEILPGSGHTEYTENFKDRVTMTRDTSTSTVYMELSSLRSEDTAVYYCARYFFGSSPNWYFDVWGQGTLVTVSS
VL: DIQMTQSPSSLSASVGDRVTITCGASENIYGALNWYQQKPGKAPKLLIYGATNLADGVPSRFSGSGSGTDFTLTISSLQPEDFATYYCQNVLNTPLTFGQGTKVEIKR
On to B1, for which the “IC50 (read off the curve); AP hemolysis, 25% NHS” value in assay [1] was approximately 200 nM. In assay [2], the “IC50 (read off the curve); CP hemolysis, 5% NHS” value was approximately 30 nM. In assay [3], the “IC50 (read off the curve); CP hemolysis, 10% NHS” value was approximately 80 nM. In addition, the “IC50 (read off the curve); CP hemolysis, 25% NHS” value in assay [4] is approximately 100 nM. Also, the “IC50 (read off the curve); AP hemolysis, 25% NHS, 1 mM MgCl2” value in assay [5] is approximately 200 nM. For the same molecule, the “IC50 (read off the curve); AP hemolysis, 25% NHS, 1.5 mM MgCl2” value in assay [6] is approximately 200 nM. In addition, in assay [7], the “IC50 (read off the curve); AP hemolysis, 25% NHS, 2 mM MgCl2” value is approximately 200 nM.
